We go through two compounds from patent publication US20230105982A1, “INSULIN-INCRETIN CONJUGATES” (Merck Sharp & Dohme Corp., priority 2021, published 2023).

Sequences of proteins named here, by UniProt entry; tags and fusion partners are left off. Residues count along the entry.
UniProt P47871, 26-477: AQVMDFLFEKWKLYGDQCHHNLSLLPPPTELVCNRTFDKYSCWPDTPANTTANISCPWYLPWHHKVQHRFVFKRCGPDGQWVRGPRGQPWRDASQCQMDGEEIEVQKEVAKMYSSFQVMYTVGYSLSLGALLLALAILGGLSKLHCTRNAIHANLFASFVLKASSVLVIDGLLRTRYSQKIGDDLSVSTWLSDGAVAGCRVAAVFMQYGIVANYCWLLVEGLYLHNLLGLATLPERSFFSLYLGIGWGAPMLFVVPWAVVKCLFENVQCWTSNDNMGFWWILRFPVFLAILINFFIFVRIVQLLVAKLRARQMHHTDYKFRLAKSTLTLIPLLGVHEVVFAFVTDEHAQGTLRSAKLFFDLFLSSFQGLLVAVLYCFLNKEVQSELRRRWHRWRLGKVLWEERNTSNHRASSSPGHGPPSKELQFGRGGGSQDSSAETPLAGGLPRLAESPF
UniProt P43220, 24-463: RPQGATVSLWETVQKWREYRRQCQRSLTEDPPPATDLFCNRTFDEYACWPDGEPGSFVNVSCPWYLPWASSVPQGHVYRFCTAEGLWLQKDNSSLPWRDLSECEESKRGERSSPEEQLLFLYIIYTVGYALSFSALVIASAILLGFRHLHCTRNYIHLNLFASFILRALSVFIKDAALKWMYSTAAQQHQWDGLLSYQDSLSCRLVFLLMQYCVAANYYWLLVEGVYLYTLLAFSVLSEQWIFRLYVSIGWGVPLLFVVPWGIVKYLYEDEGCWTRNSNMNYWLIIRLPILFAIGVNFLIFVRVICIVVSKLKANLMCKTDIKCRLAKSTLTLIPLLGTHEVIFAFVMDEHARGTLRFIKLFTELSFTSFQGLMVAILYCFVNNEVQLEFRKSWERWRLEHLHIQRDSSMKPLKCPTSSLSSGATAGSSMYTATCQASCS

The target of one assay is T1, human GCGR (Homo sapiens, UniProt P47871).
T1 construct: expressed in transfected cells
Description: cAMP activity assay, cells expressing human GCGR. The assay is classed as cell-based. The conditions noted are these: hGCGR_EC50.

For another assay, the target named is human GLP1R (Homo sapiens, UniProt P43220). Description: cAMP activity assay, cells expressing human GLP1R. The assay is classed as cell-based.

Read-outs that look alike come from different tables or passages of the source.

Usually EC50 stands for the concentration needed to bring the measured effect to its halfway point. For `CCCCCCCCCCCCCCCC(=O)N[C@@H](CCC(=O)N[C@@H](CCC(=O)NCCCC[C@H](NC(=O)[C@H](CC(=O)O)NC(=O)[C@H](CO)NC(=O)[C@@H](NC(=O)[C@H](Cc1ccccc1)NC(=O)[C@@H](NC(=O)CNC(=O)[C@H](CCC(N)=O)NC(=O)[C@@H](CO)NC(=O)[C@@H](N)Cc1c[nH]cn1)[C@@H](C)O)[C@@H](C)O)C(=O)N[C@@H](CO)C(=O)N[C@@H](CCCCN)C(=O)N[C@@H](Cc1ccc(O)cc1)C(=O)N[C@@H](CC(C)C)C(=O)N[C@@H](CC(=O)O)C(=O)NC(C)(C)C(=O)N[C@@H](CCCNC(=N)N)C(=O)N[C@@H](C)C(=O)N[C@@H](C)C(=O)N[C@@H](CCC(N)=O)C(=O)N[C@@H](CC(=O)O)C(=O)N[C@@H](Cc1ccccc1)C(=O)N[C@H](C(=O)N[C@@H](CCCCN=[N+]=[N-])C(=O)N[C@@H](Cc1c[nH]c2ccccc12)C(=O)N[C@@H](CC(C)C)C(=O)N[C@@H](CC(C)C)C(=O)N[C@@H](CC(=O)O)C(=O)N[C@H](C(N)=O)[C@@H](C)O)C(C)C)C(=O)O)C(=O)O` [PEP7], the EC50 on human GCGR amounted to 0.06 nM; at human GLP1R (hGLP1R EC50), 0.38 nM.

`CSCC[C@H](NC(=O)[C@H](CC(C)C)NC(=O)[C@H](Cc1c[nH]c2ccccc12)NC(=O)[C@H](CCC(N)=O)NC(=O)[C@@H](NC(=O)[C@H](Cc1ccccc1)NC(=O)[C@H](CC(=O)O)NC(=O)[C@H](CCCCN=[N+]=[N-])NC(=O)[C@H](C)NC(=O)[C@H](C)NC(=O)[C@H](CCCNC(=N)N)NC(=O)C(C)(C)NC(=O)[C@H](CC(=O)O)NC(=O)[C@H](CC(C)C)NC(=O)[C@H](Cc1ccc(O)cc1)NC(=O)[C@H](CCCCN)NC(=O)[C@H](CO)NC(=O)[C@H](CCCCN)NC(=O)[C@H](CC(=O)O)NC(=O)[C@H](CO)NC(=O)[C@@H](NC(=O)[C@H](Cc1ccccc1)NC(=O)[C@@H](NC(=O)CNC(=O)[C@H](CCC(N)=O)NC(=O)C(C)(C)NC(=O)[C@@H](N)Cc1c[nH]cn1)[C@@H](C)O)[C@@H](C)O)C(C)C)C(=O)N[C@@H](CC(N)=O)C(=O)N[C@H](C(=O)N[C@@H](CCCCN)C(=O)N[C@@H](CCC(N)=O)C(=O)O)[C@@H](C)O` [PEP70]: at human GLP1R (cAMP assay, Table 5, read-out: hGLP1R EC50), the EC50 amounted to 0.04 nM.
